{
  "sequences": {"note": "Amino acid sequences for entries named in this document (tags omitted).", "UniProt P38398, whole entry, looked up": "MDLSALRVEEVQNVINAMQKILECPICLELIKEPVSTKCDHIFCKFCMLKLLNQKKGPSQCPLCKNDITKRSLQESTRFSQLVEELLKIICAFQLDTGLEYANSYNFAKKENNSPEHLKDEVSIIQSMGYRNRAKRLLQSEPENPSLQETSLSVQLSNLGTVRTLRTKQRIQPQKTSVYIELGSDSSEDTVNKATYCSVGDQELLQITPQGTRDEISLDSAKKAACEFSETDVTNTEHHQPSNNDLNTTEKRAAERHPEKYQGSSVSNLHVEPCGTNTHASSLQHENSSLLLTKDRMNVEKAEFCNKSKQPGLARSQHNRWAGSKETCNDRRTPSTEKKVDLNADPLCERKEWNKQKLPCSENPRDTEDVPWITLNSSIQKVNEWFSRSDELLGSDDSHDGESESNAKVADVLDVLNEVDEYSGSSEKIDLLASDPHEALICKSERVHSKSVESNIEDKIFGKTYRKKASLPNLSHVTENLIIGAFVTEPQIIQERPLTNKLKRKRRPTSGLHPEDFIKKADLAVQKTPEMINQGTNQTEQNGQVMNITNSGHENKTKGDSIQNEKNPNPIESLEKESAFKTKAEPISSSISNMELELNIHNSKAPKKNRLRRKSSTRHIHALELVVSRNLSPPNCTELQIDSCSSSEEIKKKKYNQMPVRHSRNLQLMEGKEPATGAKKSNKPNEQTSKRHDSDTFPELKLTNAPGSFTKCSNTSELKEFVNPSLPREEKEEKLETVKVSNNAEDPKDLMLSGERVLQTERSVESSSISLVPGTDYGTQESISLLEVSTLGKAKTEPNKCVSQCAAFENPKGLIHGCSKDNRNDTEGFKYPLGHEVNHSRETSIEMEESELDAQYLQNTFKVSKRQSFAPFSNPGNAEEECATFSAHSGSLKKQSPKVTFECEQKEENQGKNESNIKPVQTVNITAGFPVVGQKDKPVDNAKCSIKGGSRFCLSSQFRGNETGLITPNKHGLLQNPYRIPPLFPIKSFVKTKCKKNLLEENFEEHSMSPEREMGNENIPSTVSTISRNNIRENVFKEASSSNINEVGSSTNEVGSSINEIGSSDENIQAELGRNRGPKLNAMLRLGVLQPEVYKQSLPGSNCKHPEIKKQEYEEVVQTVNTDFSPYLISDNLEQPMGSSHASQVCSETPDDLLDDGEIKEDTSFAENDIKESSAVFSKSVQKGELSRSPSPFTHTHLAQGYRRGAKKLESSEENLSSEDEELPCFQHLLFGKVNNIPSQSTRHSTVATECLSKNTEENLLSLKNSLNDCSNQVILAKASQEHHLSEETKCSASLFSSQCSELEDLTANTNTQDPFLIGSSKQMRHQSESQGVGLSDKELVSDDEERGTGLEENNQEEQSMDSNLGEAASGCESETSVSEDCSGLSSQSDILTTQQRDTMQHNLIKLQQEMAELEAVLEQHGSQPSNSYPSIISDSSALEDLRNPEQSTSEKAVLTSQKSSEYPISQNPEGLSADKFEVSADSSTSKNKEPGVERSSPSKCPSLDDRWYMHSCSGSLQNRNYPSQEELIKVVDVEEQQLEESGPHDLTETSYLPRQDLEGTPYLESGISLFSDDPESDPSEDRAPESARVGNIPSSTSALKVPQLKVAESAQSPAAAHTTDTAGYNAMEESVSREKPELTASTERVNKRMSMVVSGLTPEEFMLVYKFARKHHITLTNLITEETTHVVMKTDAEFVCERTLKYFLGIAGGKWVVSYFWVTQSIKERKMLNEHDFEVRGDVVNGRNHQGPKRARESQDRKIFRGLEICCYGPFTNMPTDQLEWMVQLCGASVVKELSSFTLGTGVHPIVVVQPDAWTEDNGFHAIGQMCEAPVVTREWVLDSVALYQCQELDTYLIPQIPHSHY"},
  "source": "PubChem BioAssay AID875",
  "about": "(National Center for Advancing Translational Sciences (NCATS), 2007)",
  "molecular_target": "Breast cancer type 1 susceptibility protein (Homo sapiens) (UniProt P38398)",
  "assay": "qHTS Assay for Inhibitors of BRCT-Phosphoprotein Interaction (Green Fluorophore);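 also: plate controls were peptide without protein for full effect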",
  "conditions": "BRCA1 BRCT-phosphopeptide binding, green fluorescence polarization",
  "experimental": "NIH Molecular Libraries Screening Centers Network [MLSCN]\nNIH Chemical Genomics Center [NCGC]\nPI Name: Natarajan, Amarnath; University of Texas\nA complex of BRCT (C-terminal portion of BRCA1, MW ~35 kDa, His-tagged) and fluorescently labeled pBACH1 phosphorylated 10 aa peptide fragment of BACH1, a helicase implicated in DNA repair, is incubated with library members. Inhibitors of BRCT-pBACH1 binding are detected by a decrease in the fluorescence polarization (FP) of the fluorophore. In order to minimize the effect of fluorescence artifacts and to increase the overall robustness of the screen, the compound library members were incubated in separate reactions with fluorescein labeled probe-protein complexes. Protein and labeled probes were supplied by Dr. Amarnath Natarajan, Department of Pharmacology and Toxicology, University of Texas Medical Branch Galveston, TX.\nAssay Buffer: 16mM Na2HPO4, 4 mM NaH2PO4, 150 mM NaCl, 1 mM EDTA, 1 mM DTT, 0.02% NaN3, and 0.01% Tween 20 at pH 7.3.\n100 nM labeled decapeptide/250 nM protein in columns 1, 2, 5 - 48. Titration of unlabeled decapeptide control (from 10 mM, then 1:2 dilution in duplicate) pin-transferred to column 2, rows 1 to 16. Column 1 is neutral.\nThree uL of reagents were dispensed to 1536-well Greiner black solid-bottom plates. Compounds and controls (23 nL) were transferred\nvia Kalypsys PinTool. The plates were incubated for 12 min at room temperature, and then read on ViewLux (Perkin-Elmer) High throughput CCD imager using FITC for the fluorescein-labeled decapeptide probe polarization filter sets. During dispense, reagent bottles were kept submerged into 4 deg C water bath and all liquid lines were covered with aluminum foil to minimize probe and protein degradation. All screening operations were performed on a Kalypsys robotic system (Kalypsys, Inc., San Diego, CA) containing one RX-130 and two RX-90 anthropomorphic robotic arms. The timing and order of assay plates passing through the screening system were adjusted such that each compound library plate was assayed against the fluorescein- and rhodamine-labeled assay systems at immediately adjacent time points.",
  "key": {"[1]": {"conditions": "at 76.9 µM (top of the series) unless noted"}},
  "note": "Values joined by “and” are separate entries in the source; they are usually repeats but may differ in a detail not shown here. Identical values can stand only once. Only a part is listed here, and it is no random draw. Active and inactive are the calls of the source. Calls follow the shape of the dose curve; as a rule, active = well fitted inhibition curve with a large enough effect; inconclusive = small, poorly fitted or top-dose-only effect; inactive = no such curve, though single readings can be large or run the other way.",
  "data": [
    {"smiles": "CCc1nc2c(n1)c1c(non1O)c1c2no[n+]1[O-]", "values": [
      {"measurement": "activity change, negative = inhibition", "setting": "[1]", "result": "inactive: 0.245%"}
    ]},
    {"smiles": "O=C(CO)Nc1ccc([As](=O)(O)O)cc1", "values": [
      {"measurement": "activity change, negative = inhibition", "setting": "[1]", "result": "inactive: -0.537% [at 15.4 µM]"}
    ]},
    {"smiles": "CN(C(=O)Cc1ccccc1)[C@@H]1CC[C@@]2(CCCO2)C[C@H]1N1CCCC1", "values": [
      {"measurement": "activity change, negative = inhibition", "setting": "[1]", "result": "inactive: -4.94%"}
    ]},
    {"smiles": "CN(C(=O)Cc1ccc(Cl)c(Cl)c1)[C@H]1CCCC[C@@H]1N1CCCC1", "values": [
      {"measurement": "activity change, negative = inhibition", "setting": "[1]", "result": "inactive: -2.97% and inactive: -1.12% and inactive: -1.88%"}
    ]},
    {"smiles": "C(Cc1nn[nH]n1)c1nn[nH]n1", "values": [
      {"measurement": "activity change, negative = inhibition", "setting": "[1]", "result": "inactive: 1.07% [at 15.4 µM]"}
    ]},
    {"smiles": "[N-]=[N+]=NCC(O)CN=[N+]=[N-]", "note": "(configuration not stated)", "values": [
      {"measurement": "activity change, negative = inhibition", "setting": "[1]", "result": "inactive: 3.35% [at 15.4 µM]"}
    ]},
    {"smiles": "O=[N+]([O-])c1ccc(C[As](=O)(O)O)cc1", "values": [
      {"measurement": "activity change, negative = inhibition", "setting": "[1]", "result": "inactive: -1.42% [at 15.4 µM]"}
    ]},
    {"smiles": "NCC[C@@H](N)CSP(=O)(O)O", "values": [
      {"measurement": "activity change, negative = inhibition", "setting": "[1]", "result": "inactive: -2.04% [at 15.4 µM]"}
    ]},
    {"smiles": "Cc1c2non([O-])c-2c(C)[n+](=O)[n+]1[O-]", "values": [
      {"measurement": "activity change, negative = inhibition", "setting": "[1]", "result": "inactive: 0.651%"}
    ]},
    {"smiles": "O=P1(Nc2nc3ccc(Cl)cc3s2)COc2ccccc2O1", "note": "(configuration not stated)", "values": [
      {"measurement": "activity change, negative = inhibition", "setting": "[1]", "result": "inactive: -0.843%"}
    ]},
    {"smiles": "COC(=O)c1cc2c(s1)N=C(c1ccccc1)N(C)P2(=O)N1CCOCC1", "note": "(configuration not stated)", "values": [
      {"measurement": "activity change, negative = inhibition", "setting": "[1]", "result": "inactive: -0.936%"}
    ]},
    {"smiles": "Cc1cc([N+](=O)[O-])cc([N+](=O)[O-])c1O", "values": [
      {"measurement": "activity change, negative = inhibition", "setting": "[1]", "result": "inactive: 0.171%"}
    ]},
    {"smiles": "[N-]=[N+]=Nc1ccc([As](=O)(O)O)cc1", "values": [
      {"measurement": "activity change, negative = inhibition", "setting": "[1]", "result": "inactive: -1.32% [at 15.4 µM]"}
    ]},
    {"smiles": "O=C(OC1CN2CCC1CC2)c1cccc(Cl)c1", "note": "(configuration not stated)", "values": [
      {"measurement": "activity change, negative = inhibition", "setting": "[1]", "result": "inactive: -0.655%"}
    ]},
    {"smiles": "c1nnnn1CCn1cnnn1", "values": [
      {"measurement": "activity change, negative = inhibition", "setting": "[1]", "result": "inactive: -1.26%"}
    ]},
    {"smiles": "O=P(Nc1nccs1)(c1ccccc1)c1ccccc1", "values": [
      {"measurement": "activity change, negative = inhibition", "setting": "[1]", "result": "inactive: -2.58%"}
    ]},
    {"smiles": "C[C@@H](O)COc1ccc([As](=O)(O)O)cc1N", "values": [
      {"measurement": "activity change, negative = inhibition", "setting": "[1]", "result": "inactive: 0.187% [at 15.4 µM]"}
    ]},
    {"smiles": "CN1CCC[C@H](OC(=O)C(c2ccccc2)c2ccccc2)C1", "values": [
      {"measurement": "activity change, negative = inhibition", "setting": "[1]", "result": "inactive: -1.29% [at 15.4 µM]"}
    ]},
    {"smiles": "Clc1n[nH]nc1-c1nn[nH][15n]1", "values": [
      {"measurement": "activity change, negative = inhibition", "setting": "[1]", "result": "inactive: -0.381%"}
    ]},
    {"smiles": "O=P1(Nc2ccccn2)COc2ccccc2OC1", "values": [
      {"measurement": "activity change, negative = inhibition", "setting": "[1]", "result": "inactive: -0.379%"}
    ]},
    {"smiles": "CN(CCCl)Cc1cc(Cl)c(NC2=NCCN2)c(Cl)c1", "values": [
      {"measurement": "activity change, negative = inhibition", "setting": "[1]", "result": "inactive: -2.38%"}
    ]},
    {"smiles": "CN(C(=O)Cc1ccc(Cl)c(Cl)c1)[C@@H]1CCCC[C@H]1N1CCCC1", "values": [
      {"measurement": "activity change, negative = inhibition", "setting": "[1]", "result": "inactive: -0.886% [middle of 4 runs]"}
    ]},
    {"smiles": "Cc1nn(-c2ccccc2)c2c1P(=O)(N1CCOCC1)N(C)C(c1ccccc1)=N2", "note": "(configuration not stated)", "values": [
      {"measurement": "activity change, negative = inhibition", "setting": "[1]", "result": "inactive: -0.0997%"}
    ]},
    {"smiles": "O=P1(Nc2ccc(Br)cn2)COc2ccccc2OC1", "values": [
      {"measurement": "activity change, negative = inhibition", "setting": "[1]", "result": "inactive: -2.1%"}
    ]},
    {"smiles": "O=P1(Nc2ncccn2)COc2ccccc2OC1", "values": [
      {"measurement": "activity change, negative = inhibition", "setting": "[1]", "result": "inactive: -1.75%"}
    ]},
    {"smiles": "O=[As](O)(O)c1ccc([As](=O)(O)O)cc1", "values": [
      {"measurement": "activity change, negative = inhibition", "setting": "[1]", "result": "inactive: 0.745% [at 15.4 µM]"}
    ]},
    {"smiles": "O=P(Nc1nccs1)(c1ccccc1)c1nc2ccccc2s1", "note": "(configuration not stated)", "values": [
      {"measurement": "activity change, negative = inhibition", "setting": "[1]", "result": "inactive: 0.03%"}
    ]},
    {"smiles": "CCOP1(=S)c2c(C)nn(CCC#N)c2N=C(c2ccccc2F)N1C", "note": "(configuration not stated)", "values": [
      {"measurement": "activity change, negative = inhibition", "setting": "[1]", "result": "inactive: -1.68%"}
    ]},
    {"smiles": "CCOP1(=S)c2c(C)nn(CCC#N)c2N=C(c2ccc(F)cc2)N1C", "note": "(configuration not stated)", "values": [
      {"measurement": "activity change, negative = inhibition", "setting": "[1]", "result": "inactive: 1.47%"}
    ]},
    {"smiles": "NC(=O)Nc1ccc([As](=O)(O)O)cc1", "values": [
      {"measurement": "activity change, negative = inhibition", "setting": "at 34.4 µM (top of the series)", "result": "inactive: -0.972%"},
      {"measurement": "activity change, negative = inhibition", "setting": "at 76.9 µM (top of the series)", "result": "inactive: -0.114%"}
    ]},
    {"smiles": "CN(C(=O)Cc1ccc(Cl)c(Cl)c1)[C@@H]1CC[C@@]2(CCCO2)C[C@H]1N1CCCC1", "values": [
      {"measurement": "activity change, negative = inhibition", "setting": "[1]", "result": "inactive: -2.58%"}
    ]},
    {"smiles": "NS(=O)(=O)Cc1ccc([As](=O)(O)O)cc1", "values": [
      {"measurement": "activity change, negative = inhibition", "setting": "[1]", "result": "inactive: -1.43% [at 15.4 µM]"}
    ]},
    {"smiles": "O=C(CC(=O)c1ccccc1)O[C@H]1CN2CCC1CC2", "values": [
      {"measurement": "activity change, negative = inhibition", "setting": "[1]", "result": "inactive: 0.446% [at 15.4 µM]"}
    ]},
    {"smiles": "NC(=O)Nc1cc([As](=O)(O)O)cc(I)c1O", "values": [
      {"measurement": "activity change, negative = inhibition", "setting": "[1]", "result": "inactive: -0.104% [at 15.4 µM]"}
    ]},
    {"smiles": "O=C(OC1CN2CCC1CC2)C12CC3CC(CC(C3)C1)C2", "note": "(configuration not stated)", "values": [
      {"measurement": "activity change, negative = inhibition", "setting": "[1]", "result": "inactive: -1.43%"}
    ]},
    {"smiles": "O=[As]c1ccc(S(=O)(=O)NCCO)cc1", "note": "(configuration not stated)", "values": [
      {"measurement": "activity change, negative = inhibition", "setting": "[1]", "result": "inactive: -2.48% [at 15.4 µM]"}
    ]},
    {"smiles": "[N-]=[N+]=NCC(N)=O", "values": [
      {"measurement": "activity change, negative = inhibition", "setting": "[1]", "result": "inactive: 1.42% [at 15.4 µM]"}
    ]},
    {"smiles": "CN(N=O)C(=N)N[N+](=O)[O-]", "values": [
      {"measurement": "activity change, negative = inhibition", "setting": "[1]", "result": "inactive: -1.09%"}
    ]},
    {"smiles": "O=C(COc1ccccc1)OC1CN2CCC1CC2", "note": "(configuration not stated)", "values": [
      {"measurement": "activity change, negative = inhibition", "setting": "[1]", "result": "inactive: -0.908%"}
    ]},
    {"smiles": "O=C(O)[C@@H](O)c1ccc([As](=O)(O)O)cc1", "values": [
      {"measurement": "activity change, negative = inhibition", "setting": "[1]", "result": "inactive: -1.37% [at 15.4 µM]"}
    ]},
    {"smiles": "COP1(=S)c2c(C)nn(CCC#N)c2N=C(c2ccc(F)cc2)N1C", "note": "(configuration not stated)", "values": [
      {"measurement": "activity change, negative = inhibition", "setting": "[1]", "result": "inactive: -1.69%"}
    ]}
  ]
}
